The values that follow come from ChEMBL document CHEMBL4311946, “Mechanistic Insight on the Mode of Action of Colletoic Acid” (J Med Chem, 2019).

By UniProt entry, the sequences of proteins in these tests, tags left out.
UniProt P28845, whole entry C272S: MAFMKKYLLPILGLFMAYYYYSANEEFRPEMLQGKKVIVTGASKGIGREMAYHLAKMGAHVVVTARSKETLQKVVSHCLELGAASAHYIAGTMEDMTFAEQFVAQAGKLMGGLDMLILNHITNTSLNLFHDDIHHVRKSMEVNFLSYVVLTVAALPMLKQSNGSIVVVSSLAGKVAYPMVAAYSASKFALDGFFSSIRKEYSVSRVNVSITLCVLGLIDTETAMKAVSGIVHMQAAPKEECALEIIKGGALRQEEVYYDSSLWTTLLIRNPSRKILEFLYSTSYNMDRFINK

The assay addresses 11-beta-hydroxysteroid dehydrogenase 1 (Homo sapiens, UniProt P28845, C272S). Kind of assay: Inhibition of N-terminal MKHQHQHQHQHQHQQPL-tagged 11beta-HSD1 C272S mutant (unknown origin) expressed in Escherichia coli BL21 (DE3) using cortisol as substrate measured for 1 hr in presence of NADPH by fluorescence assay.

As usually defined, the IC50 is the concentration needed to halve the response being measured. As usually defined, the Ki is the dissociation constant of the complex between target and ligand, obtained from inhibition or displacement.

Turning to `CC1(C)[C@@H](OC(=O)CCC(=O)O)CC[C@]2(C)[C@H]3C(=O)C=C4[C@@H]5C[C@@](C)(C(=O)O)CC[C@]5(C)CC[C@@]4(C)[C@]3(C)CC[C@@H]12` [CARBENOXOLONE], the IC50 is 410 nM and the inhibition constant Ki worked out at 62 nM.
